Here are results for one compound from US10851097B2, “4,5,6,7-tetrahydro-1H-imidazo[4,5-c]pyridine and 1,4,5,6,7,8-hexahydroimidazo[4,5-d]azepine derivatives as janus kinase inhibitors” (Topivert Pharma Limited, priority 2015, dated 2020).

Sequences of proteins named here, by UniProt entry; tags and fusion partners are left off. Residues count along the entry.
UniProt P23458, 866-1154 limits assumed: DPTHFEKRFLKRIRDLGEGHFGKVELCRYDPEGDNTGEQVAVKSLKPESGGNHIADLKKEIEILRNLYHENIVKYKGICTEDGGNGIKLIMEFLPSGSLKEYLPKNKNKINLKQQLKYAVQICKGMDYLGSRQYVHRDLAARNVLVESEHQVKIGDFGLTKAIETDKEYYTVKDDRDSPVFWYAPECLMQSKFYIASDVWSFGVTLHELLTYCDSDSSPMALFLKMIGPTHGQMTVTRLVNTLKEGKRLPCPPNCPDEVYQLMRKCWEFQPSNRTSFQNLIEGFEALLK

The test addresses T1, JAK1 (Homo sapiens, UniProt P23458).
T1 construct: purchased DiscoveRx (LeadHunter Discover Services, KINOMEscan)
The test can be described thus: KINOMEscan enzyme binding assay (DiscoveRx), JAK1. As to conditions: read-out: Dissociation Constant JAK1. As to the method:
Kinase enzyme binding activities of compounds disclosed herein may be determined using a proprietary assay which measures active site-directed competition binding to an immobilized ligand (Fabian, M. A., et al., Nature Biotechnol. 2005, 23, 329-336). These assays may be conducted by DiscoveRx (formerly Ambit; San Diego, Calif.). The percentage inhibition produced by incubation with a test compound may be calculated relative to the non-inhibited control.

Consider `CCc1cc(O)c(F)cc1-c1ccc2c(-c3nc4c([nH]3)CCN(C(=O)c3cnc(N5CCCCC5)cn3)C4)n[nH]c2c1` [Reference Compound, reference compound], for which the Kd came to 2.7 nM.
